Screens deposited in PubChem by Broad Institute.
FN deposition inh: inhibitors of fibronectin matrix deposition, primary screen, AH1F cells, Alexa488-fibronectin fluorescence, plate reader. AH1F fibroblasts, overnight. inhibition, % at 12.6 µM. 350,000 tested, 0.086% active. AID 743247, 2014;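 active means mean inhibition across replicates of 30% or more, regardless of how many single replicates reach that level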;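 further: positive control wells lacked labelled fibronectin entirely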
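material = AH1F fibroblast monolayer depositing Alexa488-labelled fibronectin into matrix | amount = 10000 AH1F cells/well | buffer or medium = DMEM plus 2% serum, read in PBS | incubation = 1 h cell adhesion before compound, then overnight fibronectin incubation | detection = fluorescence at 485 nm excitation, 525 nm emission | evaluation = percent inhibition as loss of matrix-bound fibronectin fluorescence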
miR-122 sensor: miR-122 Renilla sensor signal increase in Huh7, primary screen, miR-122 inhibitor project, cell-based, single point, plate reader; Huh7 miR-122 Renilla luciferase sensor, 48 h; neutral wells = 0, positive control = 100; activation (reporter increase), % at 12.5 µM; 340,000 tested, 0.3% active; AID 602342, 2012;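 active means mean replicate activation score at least 90 and every replicate individually at or above 90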;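 further: higher luciferase means less miR-122 activity so hits act as miR-122 inhibitors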
Cneo AK release: Cryptococcus neoformans cell lysis inducers, primary screen, AK release luminescence, single concentration; lysis activity, % at 15 µM; C. neoformans lysis, adenylate kinase release luminescence, 4 h; normalised: neutral wells 0, clomiphene wells 100; 360,000 tested, 0.2% active; AID 651654, 2012;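 active means mean lysis activity across replicates of at least 80%, whatever share of replicates individually reach that level; inactive means mean lysis activity below 80%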
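Test system: log-phase Cryptococcus neoformans yeast cells; Quantity: yeast cell density of 5 × 10^6 cells/mL; Buffer or medium: YPD; Doses: single compound concentration per well; Timing: 4 h at 37 °C static, read 1 h later; Measured by: AK luminescence; Read-out basis: lysis from increased AK signal; Control set: Clomiphene as positive control.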
UUG fidelity: yeast start codon fidelity modulation; actives 0.13% (n = 350,000); activity score, % at 18.7 µM; S. cerevisiae UUG-firefly luciferase reporter, luminescence/redox ratio;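 active = replicate mean at a twofold rise or more, about +100% in these data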;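 note: firefly luciferase made from a UUG start codon reports start codon fidelity; reporter light over untreated wells divided by growth signal over untreated wells; some hits fall short of that in this replicate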
PGC1a acetyl inh: inhibitors of PGC1a acetylation signal, primary screen, cell-based, U2OS, AlphaScreen, inhibitor mode. AlphaScreen anti-acetyl-lysine; with virally co-expressed GCN5 acetyltransferase. inhibition, % at 15.6 µM. 350,000 tested, 0.17% active. AID 651687, 2012;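 active means every replicate shows inhibition of at least 40%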;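 further: 0% = neutral control wells and 100% = positive control wells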
Env fusion inh: inhibitors of HIV-1 Env-driven cell-cell fusion, primary screen, HeLa-JRFL effector, CEM21 target cells, luciferase. inhibition, % at 12.3 µM. 360,000 tested, 1.1% active. AID 651610, 2012;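 active means mean replicate inhibition score of at least 50 and every replicate individually at or above 50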;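 further: 0% = plate neutral controls and 100% = maraviroc near 300 nM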
An asterisk follows results filed as active; · = no result; [ ] = another dose, or the depositor's remark. An excerpt weighted towards active compounds, which were near 1.5% of everything screened.

#	SMILES	FN deposition inh	miR-122 sensor	Cneo AK release
1	CCc1ccc(C2CC3C(CN2S(=O)(=O)c2ccc(C)cc2)[C@@H](O)C[C@@H](c2ccc(CC)cc2)N3S(=O)(=O)c2ccc(C)cc2)cc1 (stereo not given in full)	17	·	·
2	CCc1ccc([C@H]2[C@@H]3C(=O)C[C@@H]4C(=O)N(C)C(=O)[C@@H]4[C@@H]3CN2S(=O)(=O)c2ccc(C)cc2)cc1	-1	4	4
3	CCc1ccc([C@H]2[C@@H]3C(=O)C[C@@H]4C(=O)N(Cc5ccccc5)C(=O)[C@@H]4[C@@H]3CN2S(=O)(=O)c2ccc(C)cc2)cc1	-1	0	1
4	CCc1ccc([C@@H]2CC(=O)[C@@H]3CN(S(=O)(=O)c4ccc(Cl)cc4)[C@H](c4ccc(C)cc4)C[C@@H]3N2S(=O)(=O)c2ccc(C)cc2)cc1	-2	1	2
5	Cc1noc(C)c1NC(=O)N(C)C[C@@H]1Oc2ccc(NS(=O)(=O)c3cccs3)cc2CC(=O)N([C@@H](C)CO)C[C@@H]1C	·	0[16.7 µM]	-3
6	Cn1nnnc1Sc1ncnc2scc(-c3ccc(F)cc3)c12	·	-24	1
7	Nc1nonc1-c1nc2ccccc2n1CC(=O)Nc1ccccc1	-1	15	21
8	CCOC(=O)c1ccccc1NC(=O)Cn1c(-c2nonc2N)nc2ccccc21	active	25	-1
9	Cc1cccc(OCC(=O)N/N=C/c2cccn2C)c1	4	-3	3
10	Cc1ccc(OCC(=O)N/N=C/c2cccn2C)cc1C	11	·	·
11	Cc1ccc(OCCCCNC(C)c2ccccc2)c(C)c1 (stereo not given)	13	-1	2
12	O=C1c2ccc(-c3ccc4c(c3)C(=O)N(CCCO)C4=O)cc2C(=O)N1CCCO	8	2	3
13	O=C(CCCNC(=O)c1ccc(Cl)cc1)Nc1nccs1	0	·	87*
14	O=C(Cn1cnc2c(NCc3ccccc3)ncnc21)N1CCN(c2ccccn2)CC1	-12	-6	-3
15	Cc1cc(C)c(CN2CCN(C(=O)Cn3cnc4c(NCc5ccccc5)ncnc43)CC2)c(C)c1	·	-6	1

#	UUG fidelity	PGC1a acetyl inh	Env fusion inh
1	·	·	61*
2	11	0	-14
3	-15	3	71*
4	-16	-2	·
5	-2	-6	9[16.7 µM]
6	-21	-21	83*
7	-11	0	14
8	-15	-17	-8
9	-6	9	62*
10	·	-8	-11
11	-12	4	96*
12	-15	70*	-3
13	13	-4	-16
14	-18	-1	20
15	-6	·	87*

Overlap with the part before: three entries; new compounds follow.
#	SMILES	FN deposition inh	miR-122 sensor	Cneo AK release
13	O=C(CCCNC(=O)c1ccc(Cl)cc1)Nc1nccs1	0	·	87*
14	O=C(Cn1cnc2c(NCc3ccccc3)ncnc21)N1CCN(c2ccccn2)CC1	-12	-6	-3
15	Cc1cc(C)c(CN2CCN(C(=O)Cn3cnc4c(NCc5ccccc5)ncnc43)CC2)c(C)c1	·	-6	1
16	C[C@H]1CNC(=O)c2c(C(=O)N3CCN(c4ccccc4)CC3)ncn21	14	·	·
17	C[C@H]1CNC(=O)c2c(C(=O)N3CCN(C(=O)OC(C)(C)C)CC3)ncn21	5	9	-2
18	C[C@@H]1Cn2cnc(C(=O)N(C)Cc3ccccc3)c2C(=O)N1	9	·	·
19	C[C@@H]1CNC(=O)c2c(C(=O)N(C)Cc3ccccc3)ncn21	-6	·	·
20	CC(C)(C)OC(=O)N1CCN(C(=O)c2ncn3c2c(=O)[nH]c2ccccc23)CC1	4	4	1
21	COc1ccc(S(=O)(=O)N(C)C[C@H]2OCCCC[C@@H](C)Oc3ccc(NS(=O)(=O)c4cccs4)cc3C(=O)N([C@@H](C)CO)C[C@H]2C)cc1	·	-7[16.7 µM]	-2
22	O=C(C[C@H]1C=C[C@@H](NC(=O)Nc2ccccc2F)[C@H](CO)O1)NCc1ccc(-c2ccccc2)cc1	0	-4[16.7 µM]	38
23	O=C(O)C[C@@H]1C=C[C@@H](NC(=O)Nc2ccccc2)[C@H](CO)O1	8	·	-2
24	O=C(C[C@@H]1C=C[C@@H](NC(=O)Nc2ccc3c(c2)OCO3)[C@H](CO)O1)NCc1ccc(F)cc1	·	·	5
25	COc1ccccc1NC(=O)N[C@H]1C=C[C@H](CC(=O)N[C@H](C)c2ccccc2)O[C@@H]1CO	-20	·	-2
26	COc1ccccc1NC(=O)N[C@H]1C=C[C@@H](CC(=O)N[C@H](C)c2ccccc2)O[C@H]1CO	-1	·	4
27	CC1CCc2c(sc(N)c2C(N)=O)C1 (stereo not given)	·	2	-1
28	C[C@H]1CN([C@@H](C)CO)C(=O)Cc2cc(NC(=O)NC3CCCCC3)ccc2O[C@H]1CN(C)C(=O)Nc1ccccc1	·	-4[16.7 µM]	-7
29	C/C=C/c1cnc2c(c1)C(=O)N([C@H](C)CO)C[C@@H](C)[C@H](CN(C)C(=O)Nc1ccccc1F)O2	·	-6[16.7 µM]	-5
30	O=C(C[C@H]1CC[C@H](NC(=O)NC2CCCCC2)[C@H](CO)O1)NCc1ccc(Cl)cc1	-7	·	3

#	UUG fidelity	PGC1a acetyl inh	Env fusion inh
13	13	-4	-16
14	-18	-1	20
15	-6	·	87*
16	·	·	79*
17	-2	-7	72*
18	·	·	-39
19	·	·	137*
20	-12	-17	·
21	-9	-4	-35[16.7 µM]
22	6	1	57*[16.7 µM]
23	-10	-5	58*[16.7 µM]
24	-17	-5	59*[16.7 µM]
25	-8	-1	14[16.7 µM]
26	-4	-3	94*[16.7 µM]
27	-10	7	·
28	-9	5	-21[16.7 µM]
29	1	9	-12[16.7 µM]
30	-3	54*	3[16.7 µM]

Next part.
#	SMILES	FN deposition inh	miR-122 sensor	Cneo AK release
31	CCC(=O)N[C@H]1C=C[C@@H](CC(=O)OC)O[C@@H]1CO	2	5[16.7 µM]	88*
32	O=C(C[C@H]1CC[C@@H](NC(=O)Nc2ccccc2F)[C@@H](CO)O1)NCc1ccc(Cl)cc1	11	·	0
33	CCC(=O)N[C@@H]1C=C[C@H](CC(=O)OC)O[C@H]1CO	-11	-10[16.7 µM]	18
34	O=C(C[C@@H]1CC[C@H](NC(=O)NC2CCCCC2)[C@@H](CO)O1)NCc1ccc(Cl)cc1	0	·	-4
35	O=C(C[C@@H]1C=C[C@@H](NC(=O)Nc2cc(F)ccc2F)[C@H](CO)O1)NCCCN1CCOCC1	5	-5[16.7 µM]	103*
36	C[C@H]1CN([C@@H](C)CO)C(=O)c2cccc(NC(=O)CCCCCC(=O)Nc3ccccc3N)c2O[C@H]1CN(C)C(=O)Nc1ccc2c(c1)OCO2	-1	·	·
37	O=S(=O)(N[C@@H]1CC[C@@H](CCNS(=O)(=O)c2ccccc2Cl)O[C@H]1CO)c1ccccc1	·	·	4
38	O=C(Nc1cccc(F)c1)N[C@@H]1CC[C@@H](CCNS(=O)(=O)c2cccc(Cl)c2)O[C@@H]1CO	·	·	1
39	CCS(=O)(=O)NCC[C@H]1CC[C@H](NS(=O)(=O)c2cccc(F)c2)[C@H](CO)O1	0	·	110*

#	UUG fidelity	PGC1a acetyl inh	Env fusion inh
31	10	2	17[16.7 µM]
32	1	-4	59*[16.7 µM]
33	3	3	-2[16.7 µM]
34	11	-1	17[16.7 µM]
35	16	10	-2[16.7 µM]
36	·	-2	·
37	8	62*	11[16.7 µM]
38	·	-9	4[16.7 µM]
39	16	13	-7[16.7 µM]

Taken from above.
cpd 24 @ PGC1a acetyl inh: -5
cpd 8 @ Cneo AK release: -1
cpd 39 @ PGC1a acetyl inh: 13
